Patent publication US6405626B1, “Decontaminating and dispersion suppressing foam formulation” (dated 2002)

Assay: Precipitation of oxidizing agent on standing

O=c1[nH]c(=O)n(Cl)c(=O)n1Cl.[Na]
concentration above which signs of precipitation appear on standing: above 2%
